Compound activity: PubChem, ICCB-Longwood Screening Facility, Harvard Medical School
GIV Gai3 FP = blocks GIV peptide binding to rat Galpha-i3. P08753. Galpha-i3/FITC-GIV peptide fluorescence polarization, 90 min; stronger effect = lower value; scaled: aluminum fluoride 0%, vehicle 100%. percent of control (FP), % (test concentration not listed). 0.42% of 210,000 active. AID 1224905;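 active = replicate mean at 85% of control or lower, very high polarization wells dropped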;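 also: wells of about 15 µL received 100 nL stock; the first replicate is given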
HCMV NEC inh = disrupts HCMV UL50-UL53 complex binding | inhibition, % (no concentration beside the values) | HTRF UL50-UL53 interaction, normalized percent inhibition | actives 0.15% (n = 190,000) | AID 1918969; in the data active means inhibition above about 27%, passing the limit was not always enough
GIV Gai FP conf = confirmation of inhibitors of GIV binding to rat Galpha-i3 | shares compounds with GIV Gai3 FP | FITC-GIV peptide binding to Galphai3, fluorescence polarization; hits give low values | fluorescence polarization, mP at 100 µM | actives 38% (n = 580) | AID 1259350;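 active means inhibition score of 15 or more, meaning 100 minus mean polarization as percent of control over three replicates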;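 further: lower mP means peptide displaced from Galphai3 so more inhibition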
GIV Gai AS conf = GIV-Galpha-i3 inhibition, AlphaScreen confirmation | shares compounds with GIV Gai3 FP | AlphaScreen Galphai3-GIV binding, purified proteins, 90 min; hits give low values | AlphaScreen counts at 100 µM | actives 39% (n = 580);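 active means inhibition score at or above a set limit, where the score is 100 minus the three-replicate mean percent of control signal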
Of the large screens only hits and unclear results are named; the others gave an inactive call (follow-up assays come after a bar, where they were run). Most compounds without a hit are left out; they make up all but 0.46% or so of the library.

CN(c1ccc(Br)cc1)S(=O)(=O)c1ccc2[nH]cc(C(=O)NCc3ccccn3)c(=O)c2c1	GIV Gai3 FP 64 (no result: HCMV NEC inh) | GIV Gai FP conf 48 | GIV Gai AS conf inactive
CCCCCCNC(=O)c1c[nH]c2ccc(S(=O)(=O)N(C)c3ccc(Br)cc3)cc2c1=O	none (no result: HCMV NEC inh)
CCOc1ccc(Nc2c3c4c(cccc4[nH]c2=O)C(=O)c2ccccc2-3)cc1	GIV Gai3 FP 32 | GIV Gai FP conf 28 | GIV Gai AS conf inactive
COc1ccc(Nc2c3c4c(cccc4n(C)c2=O)C(=O)c2ccccc2-3)cc1	none (no result: HCMV NEC inh)
CC1Cc2cc(S(=O)(=O)CCC(=O)NCCC3=CCCCC3)ccc2N1C(=O)C1CC1 (configuration not stated)	none
COC(=O)c1cc(-c2cocc2C=C(C#N)C#N)ccc1Cl	GIV Gai3 FP 52 | GIV Gai FP conf inactive | GIV Gai AS conf inactive
COC(=O)c1cnn(-c2c(Cl)cccc2Cl)c1C=C(C#N)C#N	none
O=C(O)c1cc(NS(=O)(=O)c2cc(F)ccc2F)ccc1N1CCN(c2ccc(F)cc2)CC1	none
O=C(O)c1cc(NS(=O)(=O)c2cc(F)ccc2F)cnc1N1CCOCC1	GIV Gai3 FP 57 | GIV Gai FP conf 33 | GIV Gai AS conf inactive
CCCS(=O)(=O)c1c(S(=O)(=O)CCC)c2ccccn2c1C(=O)N/N=C/c1ccc(OC)c(OC)c1	none (no result: HCMV NEC inh)
CCOc1ccc(S(=O)(=O)/N=C2/C=C(Sc3ncn[nH]3)C(=O)c3ccccc32)cc1	GIV Gai3 FP 11 | GIV Gai FP conf 32 | GIV Gai AS conf 6312
O=C(O)C(Sc1ncn[nH]1)c1ccccc1 (configuration not stated)	none (no result: GIV Gai3 FP)
O=C1C(Sc2ncn[nH]2)=C/C(=N/S(=O)(=O)c2ccc(F)cc2)c2ccccc21	GIV Gai3 FP 3.7 | GIV Gai FP conf 36 | GIV Gai AS conf 5053
O=C1C(Sc2ncn[nH]2)=C/C(=N/S(=O)(=O)c2cccs2)c2ccccc21	GIV Gai3 FP 18, HCMV NEC inh 51 | GIV Gai FP conf 40 | GIV Gai AS conf 4995
O=S(=O)(Nc1cc(Sc2ncn[nH]2)c(O)c2ccccc12)c1cccs1	none
CCOc1ccc(CSc2ncn[nH]2)cc1	none
Cn1c(=O)cc(OCC(=O)N2CCC(Cc3ccccc3)CC2)c2ccccc21	none
C[C@]12CCC(=O)C=C1CC[C@@H]1[C@H]2C(O)C[C@@]2(C)[C@H]1CC[C@@]2(O)C(=O)CO (some centres not stated)	none (no result: GIV Gai3 FP)
CN1C(=O)c2ccccc2N2C(=O)CCC12C(=O)OCc1ccc(C#N)cc1 (configuration not stated)	none (no result: GIV Gai3 FP)
CCCc1nc2n(n1)N=C(c1ccccc1)CS2	none (no result: HCMV NEC inh)
CCc1ccc(C(=O)NC(Cc2c[nH]c3ccccc23)C(=O)OCC(=O)c2ccccc2)cc1 (configuration not stated)	GIV Gai3 FP 85 (no result: HCMV NEC inh) | GIV Gai FP conf inactive | GIV Gai AS conf inactive
CCc1ccc(C(=O)NC(Cc2c[nH]c3ccccc23)C(=O)OCC(=O)c2ccc(OC)cc2)cc1 (configuration not stated)	none (no result: HCMV NEC inh)
CC1=NN(c2ccccc2)C(=O)C1C(c1ccc2c(c1)OCO2)C1C(=O)N(c2ccccc2)N=C1C (configuration not stated)	GIV Gai3 FP 72 (no result: HCMV NEC inh) | GIV Gai FP conf inactive | GIV Gai AS conf 17537
CC1=NN(c2ccccc2)C(=O)C1C(c1ccccc1)C(C#N)C#N (configuration not stated)	none (no result: HCMV NEC inh)
Cc1ccc(-c2noc(CCCn3c(=O)[nH]c4cc5c(cc4c3=O)OCO5)n2)cc1	none
Cc1cc(=O)oc2cc(OCc3ccccc3F)ccc12	none (no result: GIV Gai3 FP)
CN1CCN(c2nc(C#N)c(C#N)nc2C(C#N)=C2Nc3ccccc3N2)CC1	none
CCN1/C(=C(\C#N)c2nc(C#N)c(C#N)nc2N2CCOCC2)Nc2ccccc21	GIV Gai3 FP 67 | GIV Gai FP conf inactive | GIV Gai AS conf inactive
Cn1c(SCC(=O)Nc2ccc3nc(SCC(=O)N4CCOCC4)sc3c2)nnc1-c1ccccc1	none (no result: HCMV NEC inh)
CCn1cc(/C=C2/C(=O)N(c3ccccc3)N=C2C)c2ccccc21	none (no result: GIV Gai3 FP)
CCn1cc(/C=C2/C(=O)N(c3ccccc3)c3ccccc32)c2ccccc21	GIV Gai3 FP 53 (no result: HCMV NEC inh) | GIV Gai FP conf inactive | GIV Gai AS conf inactive
COc1ccc(N2CCN(CC(O)c3ccccc3)CC2)cc1 (configuration not stated)	none (no result: GIV Gai3 FP)
CC(=O)N(C)c1ccc(N=Cc2cccs2)cc1	none
Nc1nc2c3cccc4cccc(c(=O)n2n1)c43	GIV Gai3 FP 80 | GIV Gai FP conf inactive | GIV Gai AS conf inactive
Cc1cc2nc3c4cccc5cccc(c(=O)n3c2cc1C)c54	none (no result: HCMV NEC inh)
CC1CCN(Cc2nc3cc(NC(=O)C4CCCCC4)ccc3n2C(C)C)CC1	none
CCCCn1c(SCC(=O)NCC2CCCO2)nc2c(sc3ccccc32)c1=O (configuration not stated)	none (no result: HCMV NEC inh)
Cc1ccc2oc(=O)c(/C=C(\O)c3ccco3)nc2c1	none
COc1ccc(/C(O)=C/c2nc3cc(C)ccc3oc2=O)c(OC)c1	GIV Gai3 FP 54 | GIV Gai FP conf inactive | GIV Gai AS conf inactive
CCOc1ccc(-c2noc(Cn3nc(-c4ccccc4)c4ccccc4c3=O)n2)cc1OC	none (no result: HCMV NEC inh)
C=CCN1C(=O)/C(=C2/Sc3ccc(Cl)cc3N2CC)SC1=S	none (no result: HCMV NEC inh)
C=CCN1C(=O)/C(=C2/Sc3ccccc3N2CC)SC1=S	GIV Gai3 FP 77 (no result: HCMV NEC inh) | GIV Gai FP conf inactive | GIV Gai AS conf 3469
COc1cc(C=C2C(=O)NC(=O)NC2=O)ccc1OC(=O)c1cc(F)c(F)cc1Cl	none
COc1ccc(C(=O)Oc2ccc(C=C3C(=O)NC(=O)NC3=O)cc2Cl)cc1	GIV Gai3 FP 76, HCMV NEC inh 76 | GIV Gai FP conf inactive | GIV Gai AS conf 24807
Cc1ccc2nc(SC/C(O)=C(\C#N)c3nc4ccccc4[nH]3)[nH]c2c1	none (no result: GIV Gai3 FP)
COC(=O)CNC(=O)NCCCn1c(C(F)(F)F)nc2cccnc21	GIV Gai3 FP 80 | GIV Gai FP conf 59 | GIV Gai AS conf inactive
O=C(NCCc1ccccc1)NCCn1c(C(F)(F)F)nc2cccnc21	none
Cn1nccc1-c1nc(-c2ccc(S(=O)(=O)N3CCOCC3)cc2)no1	none
Cc1ccc(S(=O)(=O)c2nc3ccccc3nc2NCCc2ccccc2)cc1	GIV Gai3 FP 78 | GIV Gai FP conf inactive | GIV Gai AS conf inactive
COc1ccccc1CNc1nc2ccccc2nc1S(=O)(=O)c1ccc(C)cc1	none
COc1ccc(/C=C2\N=C(c3ccc(Cl)cc3)N(c3cccc(F)c3)C2=O)cc1OC	none (no result: HCMV NEC inh) | GIV Gai FP conf inactive | GIV Gai AS conf inactive
COc1ccc(/C=C2\N=C(c3ccc(Cl)cc3)N(c3cccc(C)c3)C2=O)cc1OC	none (no result: HCMV NEC inh)
COc1ccc(/C=C2\N=C(c3ccc(Cl)cc3)N(c3ccc(C)cc3C)C2=O)cc1OC	none (no result: HCMV NEC inh)
COc1ccc(/C=C2\N=C(c3ccc(Cl)cc3)N(c3ccccc3)C2=O)cc1OC	GIV Gai3 FP 81 (no result: HCMV NEC inh) | GIV Gai FP conf inactive | GIV Gai AS conf inactive
O=c1c(=NNc2nn[nH]n2)c(=O)c2ccccc12	GIV Gai3 FP 40 | GIV Gai FP conf 39 | GIV Gai AS conf 17853
O=c1c(=NNc2ccccc2)c(=O)c2ccccc12	none
O=c1ccc(C(F)(F)F)cn1CN1CCN(S(=O)(=O)c2ccc3c(c2)CCCC3)CC1	none (no result: GIV Gai3 FP)
